# In patent US12377086B2, “Therapeutic methods, combinations and kits” (priority 2021, dated 2025):
# Amino acid sequences for entries named in this document (tags omitted).
# UniProt C7C422, whole entry, looked up, species assumed: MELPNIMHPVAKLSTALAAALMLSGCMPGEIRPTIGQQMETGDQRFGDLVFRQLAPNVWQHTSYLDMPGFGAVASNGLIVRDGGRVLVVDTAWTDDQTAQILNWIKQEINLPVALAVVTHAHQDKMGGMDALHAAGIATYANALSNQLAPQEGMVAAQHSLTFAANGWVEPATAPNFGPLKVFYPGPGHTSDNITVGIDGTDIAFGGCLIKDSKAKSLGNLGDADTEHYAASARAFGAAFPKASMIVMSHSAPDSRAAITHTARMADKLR
# Tests used:
# NDM-1 [1] = biological target: T1, NDM-1 (Klebsiella pneumoniae, UniProt C7C422); experiment: biochemical
# NDM-1 [2] = biological target: T1, NDM-1; experiment: Dose response enzymatic inhibition assay and inhibition constant, NDM-1; type: biochemical
# E. coli = type: cell-based, Escherichia coli
# Protocol: (§1) Both Escherichia coli BL21 (DE3) cells (Invitrogen) and its transformed cell lines with plasmid pet24a-VIM-2 have been reported previously (M. F. Mojica, et al., Exploring the Role of Residue 228 in Substrate and Inhibitor Recognition by VIM Metallo-beta-lactamases, Biochemistry-Us, 54 (2015) 3183-3196). The optical density of the cell cultured was monitored at 600 nm (OD600 nm). The cells were cultured on 0.8 g/100 ml nutrient agar plate at pH 7.0 and 37° C. The bacterial growth medium was diluted in nutrient broth (NB) to a concentration absorbance of 1.5 and incubated overnight in 10 ml capped culture tubes with shaking. An overnight culture of the bacterial strain was sub-cultured to 0.06 OD600 nm into the NB medium and was then seeded at max 200 μl into the wells of a 96 well microtiter plate. Samples were then incubated at 37° C. and shaken at 200 rpm for 18 h. The absorbance was measured on an ELIZA plate reader and analyzed with the Gen5™ software suite (version 1.08).
# (§2) • The data are reported as relative percentage growth compared to untreated cells.
# VIM-2 expressing E. coli [3] = type: cell-based, Escherichia coli
# Protocol: as §1, §2
# VIM-2 expressing E. coli [4] = experiment: microbe, parasite or virus in culture; type: cell-based; conditions: Escherichia coli
# in vitro = conditions: human
# VIM-2 = VIM-2 (Pseudomonas aeruginosa, UniProt Q5U7L7); experiment: biochemical
smiles,measurement,setting,value
"Oc1cccc2cccnc12 [Compound 31, 8-Hydroxyquinoline]",NDM-1 percentage inhibition,"NDM-1 [1]; 50 μM compound, 5 nM MBL, 10 μM nitrocefin, 30 mins",96%
same,inhibition at 50 µM,"NDM-1 [1]; read-out: NDM-1 percentage inhibition, 50 μM compound, 5 nM MBL, 10 μM nitrocefin, 30 mins",> 96%
same,IC50,"NDM-1 [2]; 5 nM MBL, 10 μM nitrocefin",2300 nM
same,NDM-1 LE (ligand efficiency),"NDM-1 [2]; LE = −1.38 log (Ki)/N, N = number of heavy atoms",0.81
same,Ki,"NDM-1 [2]; nitrocefin substrate, competitive-inhibition fit",360 nM
same,E. coli Amox (+) relative percentage growth compared to untreated cells,E. coli,4.7%
same,E. coli Amox (−) relative percentage growth compared to untreated cells,E. coli,58%
same,growth inhibition on its own,E. coli,over 42%
same,growth inhibition on its own,"VIM-2 expressing E. coli [3]; VIM-2 expressing E. coli, compound alone",over 42%
same,VIM-2 expressing E. coli Amox (+) relative percentage growth compared to untreated cells,"VIM-2 expressing E. coli [3]; single dose, with 50 μM amoxicillin",5.0%
same,VIM-2 expressing E. coli Amox (−) relative percentage growth compared to untreated cells,"VIM-2 expressing E. coli [3]; single dose, without amoxicillin",51%
same,EC50,VIM-2 expressing E. coli [4],80 nM
same,CC50 at 72 h,in vitro,3500 nM
O=C(O)c1ccnc2c(O)cccc12 [Compound 44],IC50,"VIM-2; 5 nM MBL, 10 μM nitrocefin",2200 nM
"O=C(O)c1ccc2cccnc2c1O [Compound 45, 8-hydroxyquinoline-7-carboxylic acid]",Ki,VIM-2,280 nM
